{"sequences": {"note": "By UniProt entry, the sequences of proteins in these tests, tags left out.", "UniProt Q01959, whole entry, looked up": "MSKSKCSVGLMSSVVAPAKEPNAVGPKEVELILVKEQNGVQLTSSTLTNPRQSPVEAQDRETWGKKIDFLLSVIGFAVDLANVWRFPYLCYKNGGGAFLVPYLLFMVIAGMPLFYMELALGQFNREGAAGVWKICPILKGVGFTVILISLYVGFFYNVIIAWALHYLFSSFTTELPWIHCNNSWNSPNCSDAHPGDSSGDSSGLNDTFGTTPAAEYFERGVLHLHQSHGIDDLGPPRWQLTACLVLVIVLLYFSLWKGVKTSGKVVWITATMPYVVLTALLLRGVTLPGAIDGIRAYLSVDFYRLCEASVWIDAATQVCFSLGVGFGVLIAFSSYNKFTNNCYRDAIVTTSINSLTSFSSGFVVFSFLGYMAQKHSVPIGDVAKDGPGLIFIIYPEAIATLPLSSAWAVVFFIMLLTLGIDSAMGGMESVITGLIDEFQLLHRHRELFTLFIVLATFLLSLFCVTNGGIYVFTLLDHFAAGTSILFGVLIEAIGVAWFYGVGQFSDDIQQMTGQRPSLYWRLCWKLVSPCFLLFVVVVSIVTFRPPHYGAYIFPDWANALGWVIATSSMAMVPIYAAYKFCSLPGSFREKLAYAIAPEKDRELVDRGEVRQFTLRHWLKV"}, "source": "PubChem BioAssay AID449768", "about": "(Vanderbilt High Throughput Screening Facility, 2010)", "note": "Only a part is listed here, and it is no random draw. Active and inactive are the calls of the source.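 Rule for the calls: active = Z score or B-score, a plate-position-corrected score, falls beyond the plate's 99.7% confidence bounds, in either direction; inactive = both scores lie inside the 99.7% bounds.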", "data": [{"biological_target": "Sodium-dependent dopamine transporter (Homo sapiens) (UniProt Q01959)", "assay": "modulators of human DAT uptake with cocaine – cell-based, LLC-PK1 hDAT, [14C]-dopamine uptake, MLSMR, cocaine antagonist project, primary screen (AID 449768);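 note: scored against the spread of the other compound wells on the same plate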", "settings": "LLC-PK1 hDAT cells, [14C]-dopamine uptake with cocaine IC80; at 10 µM; actives deviate in either direction", "values": [{"smiles": "O=P1(Nc2ncccn2)COc2ccccc2OC1", "B-score": "inactive: 0.249"}, {"smiles": "Cc1ccc(OCC(=O)OC2CN3CCC2CC3)cc1", "note": "(stereo not given)", "B-score": "inactive: 0.455"}, {"smiles": "O=P1(Nc2ccc(Br)cn2)COc2ccccc2OC1", "B-score": "inactive: -1.12"}, {"smiles": "Cc1nn(-c2ccccc2)c2c1P(=O)(N1CCOCC1)N(C)C(c1ccccc1)=N2", "note": "(stereo not given)", "B-score": "inactive: -0.515"}, {"smiles": "CC1(CBr)Cn2c(nc3ccccc3c2=O)S1", "note": "(stereo not given)", "B-score": "inactive: 0.886"}, {"smiles": "CN(C(=O)Cc1ccc(Cl)c(Cl)c1)[C@@H]1CCCC[C@H]1N1CCCC1", "B-score": "inactive: -0.253"}, {"smiles": "CN(CCCl)Cc1cc(Cl)c(NC2=NCCN2)c(Cl)c1", "B-score": "inactive: 0.00169"}, {"smiles": "O=P1(Nc2ccccn2)COc2ccccc2OC1", "B-score": "inactive: -1.2"}, {"smiles": "Clc1n[nH]nc1-c1nn[nH][15n]1", "B-score": "inactive: -1.51"}, {"smiles": "Cc1cccc(OCC(=O)OC2CN3CCC2CC3)c1", "note": "(stereo not given)", "B-score": "inactive: 0.315"}, {"smiles": "NC(=O)Nc1ccc([As](=O)(O)O)cc1", "B-score": "inactive: -1.22"}, {"smiles": "CN(C(=O)Cc1ccc(Cl)c(Cl)c1)[C@H]1CC[C@@]2(CCCO2)C[C@@H]1N1CCCC1", "B-score": "inactive: 0.0959"}, {"smiles": "O=[N+]([O-])c1ccc2c(c1)nnn2O", "B-score": "inactive: -1.22"}, {"smiles": "CCOP1(=S)c2c(C)nn(CCC#N)c2N=C(c2ccc(F)cc2)N1C", "note": "(stereo not given)", "B-score": "inactive: 0.0242"}, {"smiles": "CN(C(=O)Cc1ccccc1)[C@@H]1CC[C@]2(CCCO2)C[C@H]1N1CCCC1", "B-score": "inactive: 0.0851"}, {"smiles": "O=P(Nc1nccs1)(c1ccccc1)c1nc2ccccc2s1", "note": "(stereo not given)", "B-score": "inactive: 0.372"}, {"smiles": "CCOP1(=S)c2c(C)nn(CCC#N)c2N=C(c2ccccc2F)N1C", "note": "(stereo not given)", "B-score": "inactive: 0.208"}, {"smiles": "ClCCSc1nnc(-c2cccnc2)o1", "B-score": "inactive: 1.87"}, {"smiles": "CCN(CC)C(=S)SC(NC=O)C(Cl)(Cl)Cl", "note": "(stereo not given)", "B-score": "inactive: 0.866"}, {"smiles": "CC(Cc1ccc(O)cc1)NCC(O)c1cc(O)cc(O)c1", "note": "(stereo not given)", "B-score": "inactive: -0.54"}, {"smiles": "O=C(OC1CN2CCC1CC2)C12CC3CC(CC(C3)C1)C2", "note": "(stereo not given)", "B-score": "inactive: -0.00467"}, {"smiles": "CCC(C)N(CC(C)C)C(=S)SC(NC(C)=O)C(Cl)(Cl)Cl", "note": "(stereo not given)", "B-score": "inactive: -0.0708"}, {"smiles": "COP1(=S)c2c(C)nn(CCC#N)c2N=C(c2ccc(F)cc2)N1C", "note": "(stereo not given)", "B-score": "inactive: -0.648"}, {"smiles": "O=C(COc1ccccc1)OC1CN2CCC1CC2", "note": "(stereo not given)", "B-score": "inactive: 0.199"}, {"smiles": "CC1CCN(C(=O)Oc2c(Cl)cc(Cl)c3cccnc23)CC1", "B-score": "inactive: 0.0843"}, {"smiles": "CC(=O)N1C2C3N(C(C)=O)C1C1N(C(C)=O)C(C(N1C(C)=O)N3C(C)=O)N2C(C)=O", "B-score": "inactive: -2"}, {"smiles": "O=[N+]([O-])c1cccc2n[nH]nc12", "B-score": "inactive: -0.565"}, {"smiles": "CCc1nc2c(n1)c1c(non1O)c1c2no[n+]1[O-]", "B-score": "inactive: -0.413"}, {"smiles": "CC(C)CC(=O)NC(Sc1ccc(Cl)cc1)C(Cl)(Cl)Cl", "note": "(stereo not given)", "B-score": "inactive: -0.595"}, {"smiles": "Cc1c2non([O-])c-2c(C)[n+](=O)[n+]1[O-]", "B-score": "inactive: -1.42"}, {"smiles": "Oc1ccccc1CNc1ccccn1", "B-score": "inactive: -0.0311"}, {"smiles": "CN1CCCC(OC(=O)C(c2ccccc2)c2ccccc2)C1", "note": "(stereo not given)", "B-score": "inactive: -0.616"}, {"smiles": "CN(C(=O)Cc1ccc(Cl)c(Cl)c1)[C@H]1CCCC[C@@H]1N1CCCC1", "B-score": "inactive: 0.593"}, {"smiles": "CCOP(=O)(Nc1ccccc1)OCC", "B-score": "inactive: 0.00983"}, {"smiles": "COC(=O)c1cc2c(s1)N=C(c1ccccc1)N(C)P2(=O)N1CCOCC1", "note": "(stereo not given)", "B-score": "inactive: 0.891"}, {"smiles": "CCC(=O)N1C2C3N(C(=O)CC)C1C1N(C(=O)CC)C(C(N1C(=O)CC)N3C(=O)CC)N2C(=O)CC", "B-score": "inactive: -0.514"}, {"smiles": "CCOC(=O)NC(Sc1ccccc1)C(Cl)(Cl)Cl", "note": "(stereo not given)", "B-score": "inactive: 0.289"}, {"smiles": "C[C@H]1OP(=O)(Oc2ccccc2)C[C@@H]2O[C@@H]21", "note": "(stereo not given in full)", "B-score": "inactive: -0.00917"}, {"smiles": "C[C@@H]1C=CCP(=O)(Oc2ccccc2)O1", "note": "(stereo not given in full)", "B-score": "inactive: -0.123"}, {"smiles": "O=P1(Nc2nc3ccc(Cl)cc3s2)COc2ccccc2O1", "note": "(stereo not given)", "B-score": "inactive: -0.948"}, {"smiles": "COc1ccc(C[C@H](C)NC[C@@H](O)c2ccc(O)c(NC=O)c2)cc1", "B-score": "inactive: 0.691"}, {"smiles": "O=P(Nc1nccs1)(c1ccccc1)c1ccccc1", "B-score": "inactive: -0.479"}, {"smiles": "c1nnnn1CCn1cnnn1", "B-score": "inactive: 0.429"}, {"smiles": "O=C(OC1CN2CCC1CC2)c1cccc(Cl)c1", "note": "(stereo not given)", "B-score": "inactive: 0.00604"}, {"smiles": "C[C@H]1OP(=O)(Oc2ccccc2)[C@H](O)[C@H](O)[C@H]1N=[N+]=[N-]", "note": "(stereo not given in full)", "B-score": "inactive: -0.255"}]}]}
